# Measurements taken from PMC13730216, “Membrane protein solubilization and structure determination using de novo–designed proteins” (2026).
# The chains behind the UniProt entries cited, without tags or fusion partners. Residues count along the entry.
# UniProt P0A910, 22-197 limits assumed: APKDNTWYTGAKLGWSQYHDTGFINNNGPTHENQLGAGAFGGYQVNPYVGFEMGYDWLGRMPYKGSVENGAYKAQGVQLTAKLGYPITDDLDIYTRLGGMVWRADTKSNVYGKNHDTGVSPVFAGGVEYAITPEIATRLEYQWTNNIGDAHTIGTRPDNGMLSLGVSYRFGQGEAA
# Molecular target: WRAP-OmpA (helical WRAPed OmpA) (Escherichia coli, UniProt P0A910)
# Assay: native MS and MS/MS
# Settings: 10 uM protein, 1 mM ligand; 0.5 M ammonium acetate pH 6.9; complex with two chitobiose adducts selected (14+)
# Text: native MS and MS/MS on WRAP-OmpA (helical WRAPed OmpA) | Native mass spectrometry (MS) confirmed that WRAP-OmpA binds chitobiose, a native OmpA ligand
smiles,measurement,value
CC(=O)N[C@H]1[C@H](O[C@H]2[C@H](O)[C@@H](NC(C)=O)C(O)O[C@@H]2CO)O[C@H](CO)[C@@H](O)[C@@H]1O (stereo partly shown),native MS and MS/MS,"Native mass spectrometry (MS) confirmed that WRAP-OmpA binds chitobiose, a native OmpA ligand"
